Source: PubChem BioAssay
Hits are enriched below; roughly 4.2% of the tested compounds scored in any of these assays.
ALR inh – human ALR oxidase inhibition via reduced H2O2. P55789. purified ALR, DTT oxidation, H2O2 HRP-luminol luminescence. inhibition, % (no concentration beside the values). 290,000 tested, 3.8% active. AID 485317;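 active = mean and each replicate at 75% or more; inconclusive = only one of the two met; inactive = neither met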;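 also: stock transfer was 7.5 nL into about 7.5 µL; 0% = neutral wells and 100% = wells with inactivated enzyme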
HDAC3 inhib – inhibitors of human histone deacetylase 3; O15379; recombinant HDAC3, fluorogenic peptide/trypsin coupled, fluorescence; inhibition, % at 8.3 µM; actives 0.15% (n = 320,000); in the data active = inhibition above about 26%, passing the limit was not always enough
MC4R ag barr – human MC4R agonism via beta-arrestin. AID 540308. activation, % at 8.9 µM. P32245. actives 0.98% (n = 360,000). U2OS MC4R beta-arrestin complementation, luminescence; percent of melanotan II response, DMSO zero;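 active = activation above a per-plate cutoff, the mean activation of sample wells on that plate plus 3 SD, cut at about 8% in these data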
MC4R antagonist – blocks human MC4R cAMP signaling; P32245; MC4R-expressing cells, MTII-stimulated cAMP, LANCE TR-FRET; inhibition, % at 6.5 µM; actives 0.48% (n = 360,000);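 active = inhibition above its plate's cutoff, the mean of tested wells on that plate plus 3 SD, cut at about 29% in these data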;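 note: 0% = Melanotan II alone and 100% = Melanotan II plus saturating MCL0020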
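Assay system: human MC4R-expressing U2OS cells; reagent: Melanotan II stimulation of cells; dosing: 6.5 µM single dose; timing: compound 30 min, challenge 1 h, detection 1 h; signal: TR-FRET cAMP assay; replicates: one well per compound, no replicates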
Yeast UUG start – modulators of start codon recognition fidelity in yeast; AID 602363; hit rate 0.13% among 350,000; activity score, % at 18.7 µM; S. cerevisiae UUG-firefly luciferase reporter, luminescence/redox ratio;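 active = replicate mean at a twofold rise or more, about +100% in these data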;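 note: firefly luciferase made from a UUG start codon reports start codon fidelity; reporter light over untreated wells divided by growth signal over untreated wells; some hits fall short of that in this replicate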
NALP1 inh – blocks the NALP1 inflammasome reconstituted in yeast; S. cerevisiae NALP1/ASC/caspase-1 growth, X-gal OD620, 72 h; inhibition, % at 10 µM; actives 0.61% (n = 280,000); AID 2071; in the data active = inhibition mostly above about 24%, no sharp cut-off; inactive = mostly below about 32%
U2OS cAMP counter – counter-screen for MC4R antagonists: nonselective cAMP signaling inhibitors | parental U2OS, forskolin cAMP, LANCE TR-FRET | inhibition, % at 6.5 µM | actives 26% (n = 1,600) | shares compounds with MC4R antagonist;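 active = mean inhibition over triplicates above the low-control well mean plus 3 SD, set per campaign, cut at about 13% in these data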;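 note: signal is single emission at 671 nm which falls as cellular cAMP rises; 0% = forskolin-stimulated wells and 100% = buffer without forskolin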
MC4R antag conf – human MC4R cAMP antagonism confirmation | shares compounds with MC4R antagonist | MC4R-expressing cells, MTII-stimulated cAMP, TR-FRET | inhibition, % at 6.5 µM | actives 27% (n = 1,600); in the data active = inhibition above about 29%;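 note: 0% = agonist stimulated wells alone and 100% = agonist stimulated wells plus saturating reference antagonist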
* marks the source's active call; other numbers are inactive results; · = not tested or not shown.

SMILES	ALR inh	HDAC3 inhib	MC4R ag barr	MC4R antagonist	Yeast UUG start	NALP1 inh	U2OS cAMP counter	MC4R antag conf
CC1(C)Cc2c(c(N3CCOCC3)nc3sc4c(NCC5CCCO5)nnnc4c23)CS1 (stereo not drawn)	-3	4	1	31*	-10	5	0	-1
COC(=O)CNC(c1ccccc1)c1cc(Br)ccc1N (stereo not drawn)	99*	-1	2	31*	2	21	-1	3
COC(=O)CNC(c1ccccc1)c1cc(Br)ccc1NC(=O)CNC(=O)OCc1ccccc1 (stereo not drawn)	-6	-2	-2	11	·	12	·	·
NNC(=O)CNC(c1ccccc1)c1cc(Br)ccc1N (stereo not drawn)	19	-2	2	-2	-9	-9	·	·
COC(=O)CNC(c1ccccc1)c1cc(Br)ccc1NC(=O)CCN1CCOCC1 (stereo not drawn)	-6	-1	2	29*	·	·	6	-5
O=C(/C=C/c1ccco1)OCc1nnc(-c2ccccc2)o1	12	1	-2	2	·	9	·	·
O=C(/C=C/c1ccco1)OCc1nnc(-c2ccc(Cl)cc2)o1	18	1	-2	32*	·	-8	1	-8
O=C(Nc1ccc2c(c1)[C@H]1C[C@@H](CC(=O)N3CCOCC3)O[C@@H](CO)[C@H]1O2)c1cccnc1	·	·	·	·	11	·	·	·
Cc1cc(C)cc(NC(=O)CN2CCC(NC(=O)c3cccc(F)c3)CC2)c1	-9	-8	-2	4	0	0	·	·
Cc1ccc(NC(=O)CN2CCC(NC(=O)c3cccc(F)c3)CC2)cc1C	-17	2	3	30*	-8	12	2	-7
O=C(C[C@H]1C[C@H]2c3cc(NS(=O)(=O)c4ccccc4)ccc3O[C@H]2[C@@H](CO)O1)NCC1CC1	·	·	·	·	-4	·	·	·
COc1cccc(C(=O)Nc2nnc(-c3ccccc3)s2)c1OC	1	-2	0	0	-13	16	·	·
COc1cccc(C(=O)Nc2sc(C(C)C)cc2C(N)=O)c1OC	54	9	0	30*	·	·	2	20
COC(=O)c1c(NC(=O)CC2SCC(C(=O)OC)NC2=O)sc2c1CCCC2 (stereo not drawn)	17	2	1	29*	16	4	10	32*
COC(=O)c1c(NC(C)=O)sc2c1CCCC2	-9	0	-1	8	-13	23	·	·
COc1ccc(NC(=O)Nc2ccc3c(c2)C(=O)N([C@H](C)CO)C[C@@H](C)[C@@H](CN(C)S(=O)(=O)c2cn(C)cn2)O3)cc1	·	·	·	·	-9	·	·	·
COc1ccc(S(=O)(=O)N(C)C[C@H]2Oc3c(NC(=O)Nc4ccc(C(F)(F)F)cc4)cccc3C(=O)N([C@@H](C)CO)C[C@@H]2C)cc1	·	·	·	·	0	·	·	·
Cn1c(=O)c2c(nc(Sc3n[nH]c(N)n3)n2Cc2ccccc2Cl)n(C)c1=O	-5	-1	1	29*	-28	18	0	-4
C/C=C/c1ccc2c(c1)O[C@H](CN(C)C(=O)NCCC)[C@@H](C)CN([C@H](C)CO)S2(=O)=O	·	·	·	·	5	·	·	·
Cc1noc(C)c1CN1C(=O)c2cccc([N+](=O)[O-])c2C1=O	-9	-1	0	30*	-15	7	1	-10
CN(C(=O)COC(=O)c1nc(Cl)c(Cl)c(Cl)c1Cl)C1CCS(=O)(=O)C1 (stereo not drawn)	·	·	-2	43*	·	5	15*	38*
CO[C@@H]1CN(C)C(=O)c2ccc(NC(=O)c3cccc(F)c3)cc2OC[C@H](C)N(C)C[C@H]1C	·	·	·	·	10	·	·	·
O=C(O)CSc1nc2ccccc2nc1Cc1ccccc1F	21	7	-2	31*	·	17	-1	7
COC(=O)COc1ccc(NS(=O)(=O)c2cccc([N+](=O)[O-])c2)cc1	-14	1	-2	31*	·	26	22*	43*

Next part, starting with the last 5 of the part before.
SMILES	ALR inh	HDAC3 inhib	MC4R ag barr	MC4R antagonist	Yeast UUG start	NALP1 inh	U2OS cAMP counter	MC4R antag conf
Cc1noc(C)c1CN1C(=O)c2cccc([N+](=O)[O-])c2C1=O	-9	-1	0	30*	-15	7	1	-10
CN(C(=O)COC(=O)c1nc(Cl)c(Cl)c(Cl)c1Cl)C1CCS(=O)(=O)C1 (stereo not drawn)	·	·	-2	43*	·	5	15*	38*
CO[C@@H]1CN(C)C(=O)c2ccc(NC(=O)c3cccc(F)c3)cc2OC[C@H](C)N(C)C[C@H]1C	·	·	·	·	10	·	·	·
O=C(O)CSc1nc2ccccc2nc1Cc1ccccc1F	21	7	-2	31*	·	17	-1	7
COC(=O)COc1ccc(NS(=O)(=O)c2cccc([N+](=O)[O-])c2)cc1	-14	1	-2	31*	·	26	22*	43*
COC(=O)COc1cccc(NS(=O)(=O)c2cccc([N+](=O)[O-])c2)c1	-8	2	0	1	·	16	·	·
O=C(C[C@H]1C[C@@H]2c3cc(NS(=O)(=O)c4ccc(F)cc4)ccc3O[C@@H]2[C@@H](CO)O1)N1CCOCC1	·	·	·	·	-9	·	·	·
C/C(=N/NC(=O)CN(c1ccccc1)S(=O)(=O)c1ccccc1)c1ccccc1O	·	1	0	30*	-31	5	0	14
CCCC/C(C)=N/NC(=O)CN(c1ccc(Br)cc1)S(=O)(=O)c1ccccc1	-5	-2	0	3	-14	2	·	·
Cc1ccc(S(=O)(=O)Nc2ccc3c(c2)C(=O)N([C@@H](C)CO)C[C@H](C)[C@@H](CN(C)C(=O)Nc2ccccc2)OCCCC[C@H](C)O3)cc1	·	·	·	·	-14	·	·	·
COc1ccc(S(=O)(=O)Nc2ccc3c(c2)C(=O)N([C@H](C)CO)C[C@H](C)[C@H](CN(C)C(=O)NC2CCCCC2)OCCCC[C@H](C)O3)cc1	·	·	·	·	-12	·	·	·
COCCn1c(SCC(=O)NC2CCCCC2C)nnc1-c1ccncc1 (stereo not drawn)	-1	-1	0	29*	-16	-20	0	-4
COCCCn1c(SCC(=O)NC2CCCCC2)nnc1-c1ccncc1	-12	-3	-2	2	-16	17	·	·
Cc1ccc(CC(=O)N2CCN(c3cccc(C(F)(F)F)c3)CC2)cc1	-32	3	3	33*	-2	12	-1	0
Cc1ccc(S(=O)(=O)CC(=O)N2CCN(c3cccc(C(F)(F)F)c3)CC2)cc1	1	-2	-2	13	-4	3	·	·
Cc1csc(NC(=O)c2ccc(Cl)nc2)n1	·	7	0	29*	-4	5	3	-7
O=C(Nc1nccs1)c1ccc(Cl)nc1	-5	-3	0	-5	-22	0	·	·
CCOc1ccc(C(=O)NCC(=O)OC2CCOC2=O)cc1OCC (stereo not drawn)	-4	-4	-1	32*	3	13	16*	12
O=C(CCC(=O)c1ccc(F)cc1)OC1CCOC1=O (stereo not drawn)	-2	0	0	33*	-28	18	21*	37*
CO[C@@H]1CN(C)C(=O)c2ccc(NC(C)=O)cc2OC[C@H](C)N(CC2CCCCC2)C[C@H]1C	·	·	·	·	-6	·	·	·
CC(=O)N1N=C(c2ccc(C)cc2)CC1c1ccco1 (stereo not drawn)	19	2	-1	30*	52	1	12	3
